Measured values reported in publication PMC5484788, “Development of a common carp (Cyprinus carpio) pregnane X receptor (cPXR) transactivation reporter assay and its activation by azole fungicides and pharmaceutical chemicals” (Toxicology in Vitro, 2017).

The chains behind the UniProt entries cited, without tags or fusion partners.
UniProt A0A1P8P0E9, entry or part of it: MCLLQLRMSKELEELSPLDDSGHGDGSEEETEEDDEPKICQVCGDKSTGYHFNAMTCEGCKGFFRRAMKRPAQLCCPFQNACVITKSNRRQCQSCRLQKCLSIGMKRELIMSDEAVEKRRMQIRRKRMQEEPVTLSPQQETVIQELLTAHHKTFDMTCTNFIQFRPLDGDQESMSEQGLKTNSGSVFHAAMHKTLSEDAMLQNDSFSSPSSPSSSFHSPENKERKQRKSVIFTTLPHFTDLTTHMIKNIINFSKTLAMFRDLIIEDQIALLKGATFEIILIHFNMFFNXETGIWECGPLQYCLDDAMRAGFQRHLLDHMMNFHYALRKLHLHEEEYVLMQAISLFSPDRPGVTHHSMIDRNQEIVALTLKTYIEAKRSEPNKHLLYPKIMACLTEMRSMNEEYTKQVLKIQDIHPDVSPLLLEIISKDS

Biological target: cPXR (Cyprinus carpio, UniProt A0A1P8P0E9)

CO[C@H]1/C=C/O[C@@]2(C)Oc3c(C)c(O)c4c(O)c(c(/C=N/N5CCN(C)CC5)c(O)c4c3C2=O)NC(=O)/C(C)=C\C=C\[C@H](C)[C@H](O)[C@@H](C)[C@@H](O)[C@@H](C)[C@H](OC(C)=O)[C@@H]1C [RIF, rifampicin]
activation of cPXR compared with control, single concentration: not supported statistically
